Source: ChEMBL document CHEMBL1128860, “5-O-Carboxymethyl piperazide derivatives of serotonin: a new class of potent and selective 5-HT1D receptor agonists” (Bioorg Med Chem Lett, 1995)

Protein sequences, listed by entry. Tags and fused reporters are not part of them.
UniProt P08908, whole entry: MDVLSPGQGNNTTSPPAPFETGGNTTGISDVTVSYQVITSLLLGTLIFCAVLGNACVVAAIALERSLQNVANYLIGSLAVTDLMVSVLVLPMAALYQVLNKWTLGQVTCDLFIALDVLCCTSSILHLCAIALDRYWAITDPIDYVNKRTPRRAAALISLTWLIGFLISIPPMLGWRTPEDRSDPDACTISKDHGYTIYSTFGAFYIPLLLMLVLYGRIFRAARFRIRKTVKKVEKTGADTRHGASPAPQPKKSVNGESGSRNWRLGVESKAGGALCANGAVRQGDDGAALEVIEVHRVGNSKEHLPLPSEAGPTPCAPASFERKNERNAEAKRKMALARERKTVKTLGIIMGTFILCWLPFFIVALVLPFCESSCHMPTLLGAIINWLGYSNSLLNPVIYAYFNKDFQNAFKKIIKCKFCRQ

Molecular target: 5-hydroxytryptamine receptor 1A (Homo sapiens, UniProt P08908)
Assay: Compound was tested for its ability to inhibit forskolin-stimulated activity of adenylate cyclase coupled to human 5-HT 1A receptor in HeLa cells
Assay type: functional, cell-based

## CNS(=O)(=O)Cc1ccc2[nH]cc(CCN(C)C)c2c1
  EC50: > 1000 nM
